Earlier results, collected in paper PMC10792358 (Clinical Cancer Research, 2023).

System: NUT carcinoma and other solid tumors
Conditions: molibresib monotherapy; cited from earlier work

CCNC(=O)C[C@@H]1N=C(c2ccc(Cl)cc2)c2cc(OC)ccc2-n2c(C)nnc21 [molibresib]
recommended phase II dose (RP2D): 80 mg daily
